The values below come from patent US20190091227A1, “METHODS FOR TREATING ER+, HER2-, HRG+ BREAST CANCER USING COMBINATION THERAPIES COMPRISING AN ANTI-ERBB3 ANTIBODY” (Merrimack Pharmaceuticals, Inc., priority 2016, published 2019).

The test system of this assay is CDK2. Kind of assay: CDK2 activation (phospho-Thr160) by Western blotting in MCF7 cells. The assay is classed as cell-based, human. The note with it: MCF7, agent alone, 20-24 hours; HRG 10 nM, fulvestrant, palbociclib, abemaciclib 100 nM. On the procedure: Cellular lysates were prepared by lysis in MPER lysis buffer with the addition of protease and phosphatase inhibitors for 30 minutes on ice. Cellular debris was removed by centrifugation at 10,000 rpm. Proteins were analyzed by Western blotting according to standard protocols.
(In general: A western blot detects proteins with antibodies after separation by electrophoresis.)

As for `CCN1CCN(Cc2ccc(Nc3ncc(F)c(-c4cc(F)c5nc(C)n(C(C)C)c5c4)n3)nc2)CC1` [abemaciclib, 2-pyrimidinamine, N-(5-((4-ethyl-1-piperazinyl)methyl)-2-pyridinyl)-5-fluoro-4-(4-fluoro-2-methyl-1-(1-methylethyl)-1H-benzimidazol-6-yl), reference compound], the CDK2 activation entry was “inhibited CDK2 activation”.
